Drawing on patent US20150273086A1, “HYPERPOLARIZED 2-OXOGLUTARATE AS METABOLIC AGENT IN MR” (BRACCO IMAGING S.P.A., priority 2012, published 2015), this text covers polarization for one substance.

The conditions of this data set: 30 s after dissolution; phosphate buffer, pH 7.2.

The substance “1-^13C-2-oxoglutaric acid [hyperpolarized 1-^13C-2-oxoglutarate]” came in with a polarization of 14%.
